Reference: PMC6116245 (Viruses, 2018)

Tested on: CC(C)C[C@H](NC(=O)[C@H](CCCNC(=N)N)NC(=O)[C@H](Cc1ccccc1)NC(=O)c1ccc(N=Nc2ccc(N(C)C)cc2)cc1)C(=O)N[C@@H](CCC(=O)O)C(=O)N[C@@H](C)C(=O)N[C@@H](CC(=O)O)C(=O)N[C@@H](CC(=O)O)C(=O)NCC(=O)NCCNc1cccc2c(S(=O)(=O)O)cccc12
Experiment: purified protein, by the assay type
Settings: other: 0-100 µM substrate, 1 h at 37 °C

FCV protease (recombinant FCV Pro-Pol) (Feline calicivirus (strain Urbana))
Km: 33.5 µM
